System: Pansy plants
Experiment: Pansy yellow leaf number (leaf yellowing)
Assay type: in vivo
Experimental: All studies were conducted in the greenhouse at the research farm of Valent BioSciences Corporation (Long Grove, Ill.). Pansy plants were obtained either from local retailers as mature plants, or plugs from wholesale nurseries. Plugs of Pansy plants were transplanted into an 18-cell flat filled with Promix BX (available from Premier Horticulture Inc. Quakertown, Pa.) and grown for about 30 days prior to treatment. During growing periods, plants received daily irrigation and weekly fertilizer (1 g/L all purpose fertilizer 20-20-20, The Scotts Company, Marysville, Ohio).
Uniform plants were selected for the study. Prior to chemical treatment, plants were saturated with water and then drained for about two hours. A total of 20 mL chemical solution, which is equivalent to about 10% of the cell volume, was applied to each plant with 3 mL solution foliar applied to canopy and 17 mL solution drench applied to root zone. Unless specified, watering of plants was stopped after chemical treatment.
After chemical treatment, plants were arranged in a randomized complete block experimental design. The plants were rated daily for the extent of wilting on a scale from 1 (no wilting) to 4 (complete wilting) to generated a sales index rating. A rating of 2.5 was the point at which a plant was determined to be unmarketable and the previous day was recorded as the shelf life of that plant in days. […] Leaf transpiration rate was measured after treatment using a LI-1600 Steady State Porometer (LI-Cor, Lincoln, Nebr.). The transpiration rate of each treatment was calculated as the percentage of that of control at each day to reduce day-to-day variation caused by changes of environmental condition such as light intensity, humidity, and temperature.

[1] = 3 mg, Matrix Orange, drought, 3 d after treatment, Table 2

(S)-5-(1-hydroxy-2,6,6,-trimethyl-4-oxo-2-cyclohexen-1-yl)-3-methyl-(2Z,4E)-pentadienoic acid [ABA]
Yellow leaf number (0.3 mg ABA, Matrix Yellow, 3 d after treatment, Table 5): 5.3 | Yellow leaf number (0.3 mg ABA, Matrix Yellow, 3 d after treatment, Table 6): 7.8 | Yellow leaf number (0.3 mg ABA, Matrix Yellow, 3 days after treatment, Table 17): 7.0 | Yellow leaf number (0.3 mg ABA, Matrix Yellow, 7 days after treatment, Table 17): 12.0 | Yellow leaf number (1 mg, Matrix Orange, drought, 3 d after treatment, Table 1): 8 | Yellow leaf number (3 mg ABA, Colossus Formula Mix, 3 days after treatment, Table 20): 4.0 | Yellow leaf number (3 mg ABA, Colossus Formula Mix, 8 days after treatment, Table 20): 6.5 | Yellow leaf number (3 mg ABA, Delta Premium Pure White, 3 days after treatment, Table 21): 2.5 | Yellow leaf number (3 mg ABA, Delta Premium Pure White, 3 days after treatment, Table 22): 7.2 | Yellow leaf number (3 mg ABA, Delta Premium Pure White, 3 days after treatment, Table 24): 5.3 | Yellow leaf number (3 mg ABA, Delta Premium Pure White, 7 days after treatment, Table 22): 11.7 | Yellow leaf number (3 mg ABA, Delta Premium Pure White, 7 days after treatment, Table 24): 10.5 | Yellow leaf number (3 mg ABA, Delta Premium Pure White, 8 days after treatment, Table 21): 3.8 | Yellow leaf number (3 mg ABA, Matrix Yellow, 3 d after treatment, Table 5): 7.5 | Yellow leaf number (3 mg ABA, Matrix Yellow, 3 d after treatment, Table 6): 10.2 | Yellow leaf number (3 mg ABA, Matrix Yellow, 3 days after treatment, Table 17): 12.7 | Yellow leaf number (3 mg ABA, Matrix Yellow, 7 days after treatment, Table 17): 17.8 | Yellow leaf number (3 mg ABA, no water, Matrix Premium Rose, 3 d after treatment, Table 13): 8.3 | Yellow leaf number (3 mg, Clear Sky Yellow, drought, 3 d after treatment, Table 8): 3.2 | Yellow leaf number (3 mg, Crown Azure Blue, drought, 3 d after treatment, Table 9): 5.7 | Yellow leaf number (3 mg, Delta Premium Pure Golden Yellow, advanced seedling stage (1 month old), drought, 3 d after treatment, Table 4): 13.8 | Yellow leaf number (3 mg, Delta Premium Pure Golden Yellow, drought, 3 d after treatment, Table 3): 11.0 | Yellow leaf number (3 mg, Matrix Orange, drought, 3 d after treatment, Table 1): 11 | Yellow leaf number [1]: 12.0 | Yellow leaf number (3 mg, Matrix Yellow, drought, 3 d after treatment, Table 7): 11.3 | Yellow leaf number (3 mg, Matrix Yellow, drought, 3 d after treatment, Table 10): 14.7 | Yellow leaf number (10 mg, Delta Premium Pure Golden Yellow, advanced seedling stage (1 month old), drought, 3 d after treatment, Table 4): 19.0 | Yellow leaf number (10 mg, Delta Premium Pure Golden Yellow, drought, 3 d after treatment, Table 3): 14.7 | Yellow leaf number (10 mg, Matrix Orange, drought, 3 d after treatment, Table 1): 14 | Yellow leaf number (10 mg, Matrix Orange, drought, 3 d after treatment, Table 2): 15.2 | Yellow leaf number (30 mg ABA, Colossus Formula Mix, 3 days after treatment, Table 18): 9.0 | Yellow leaf number (30 mg ABA, Colossus Formula Mix, 3 days after treatment, Table 20): 8.0 | Yellow leaf number (30 mg ABA, Colossus Formula Mix, 8 days after treatment, Table 20): 12.3 | Yellow leaf number (30 mg ABA, Colossus Formula Mix, 9 days after treatment, Table 18): 13.0 | Yellow leaf number (30 mg ABA, Delta Premium Pure White, 3 days after treatment, Table 19): 5.2 | Yellow leaf number (30 mg ABA, Delta Premium Pure White, 3 days after treatment, Table 21): 7.2 | Yellow leaf number (30 mg ABA, Delta Premium Pure White, 3 days after treatment, Table 22): 13.5 | Yellow leaf number (30 mg ABA, Delta Premium Pure White, 3 days after treatment, Table 23): 14.3 | Yellow leaf number (30 mg ABA, Delta Premium Pure White, 3 days after treatment, Table 24): 12.2 | Yellow leaf number (30 mg ABA, Delta Premium Pure White, 7 days after treatment, Table 22): 20.2 | Yellow leaf number (30 mg ABA, Delta Premium Pure White, 7 days after treatment, Table 23): 21.3 | Yellow leaf number (30 mg ABA, Delta Premium Pure White, 7 days after treatment, Table 24): 18.2 | Yellow leaf number (30 mg ABA, Delta Premium Pure White, 8 days after treatment, Table 21): 9.0 | Yellow leaf number (30 mg ABA, Delta Premium Pure White, 9 days after treatment, Table 19): 11.0 | Yellow leaf number (30 mg ABA, Matrix Premium Rose, 3 d after treatment, Table 11): 14.0 | Yellow leaf number (30 mg ABA, Matrix Yellow, 3 d after treatment, Table 5): 25.2 | Yellow leaf number (30 mg ABA, Matrix Yellow, 3 d after treatment, Table 6): 17.3 | Yellow leaf number (30 mg ABA, Matrix Yellow, 3 days after treatment, Table 17): 19.3 | Yellow leaf number (30 mg ABA, Matrix Yellow, 7 days after treatment, Table 17): 28.5 | Yellow leaf number (30 mg ABA, no water, Matrix Premium Rose, 3 d after treatment, Table 13): 15.3 | Yellow leaf number (30 mg, Clear Sky Yellow, drought, 3 d after treatment, Table 8): 9.2 | Yellow leaf number (30 mg, Crown Azure Blue, drought, 3 d after treatment, Table 9): 15.0 | Yellow leaf number (30 mg, Delta Premium Pure Golden Yellow, advanced seedling stage (1 month old), drought, 3 d after treatment, Table 4): 28.2 | Yellow leaf number (30 mg, Delta Premium Pure Golden Yellow, drought, 3 d after treatment, Table 3): 21.0 | Yellow leaf number (30 mg, Matrix Orange, drought, 3 d after treatment, Table 1): 18 | Yellow leaf number (30 mg, Matrix Orange, drought, 3 d after treatment, Table 2): 21.3 | Yellow leaf number (30 mg, Matrix Yellow, drought, 3 d after treatment, Table 7): 21.0 | Yellow leaf number (30 mg, Matrix Yellow, drought, 3 d after treatment, Table 10): 21.2

COC(=O)C=C(C)C=CC1(O)C(C)=CC(=O)CC1(C)C1CC1 (stereo not shown) [PBI-696, 8′ cyclopropane ester]
Yellow leaf number [1]: 12.3

C#CC1(C)CC(=O)C=C(C)C1(O)/C=C/C(C)=C\C(=O)OC (stereo not shown) [PBI-429, 8′ acetylene-ABA methyl ester]
Yellow leaf number (0.3 mg PBI-429, no water, Whispers White, 3 d after treatment, Table 15): 12.3 | Yellow leaf number [1]: 12.2

Reference: patent publication US20100022562A1, “Use of Plant Growth Regulators to Reduce Abscisic Acid Related Plant Leaf Yellowing” (priority 2008, published 2010)
